Assay results as given in article PMC3391290.

Experiments:
[1] = molecular target: human TSH receptor, wild type (hTSHR) (human) (UniProt P16473); assay: radioligand binding; radioreceptor assay: membrane preparation (10 µg) of the HEK293-hTSHR stable line, unlabelled hTSH/bTSH varied against 0.14 nM 125I-hTSH/bTSH, 37°C, 2 h, 250 µl, PEG 6000 separation; Kd by Cheng-Prusoff for the homologous tracer
[2] = molecular target: human TSH receptor, wild type (hTSHR) (human) (UniProt P16473)

| Kd [1] [pM] | EC50 of total cellular cAMP (RIA), HEK293-hTSHR cells, 15 min at 37°C [2] [pM] | Substance |
| --- | --- | --- |
| 240 |  | bovine thyroid stimulating hormone (bTSH) (from UniProt P01217 25-120; P01223 21-132) (ligand; other documents disagree on this pair) |
|  | 70 | bovine thyroid stimulating hormone (bTSH) (from UniProt P01217 25-120; P01223 21-132) (ligand) |
